Key:
MCL-1 = MCL-1 (Homo sapiens (Human), UniProt Q07820, K194A/K197A/R201A); assay: Protein-protein interaction assay MCL-1/Noxa BH3 peptide (MCL-1 assay, TR-FRET); conditions: read-out: MCL-1 Assay [M] (median) IC50, MBP-MCL-1 / Noxa BH3 peptide
Protocol: Protein-Protein Interaction Assay: MCL-1/Noxa BH3 Peptide (MCL-1 Assay)
The dose-dependent inhibition by the compounds described in this invention of the interaction between MCL-1 and the BH3 domain of Noxa (both human) was determined using a steady state binding competition assay with time-resolved fluorescence energy transfer (TR-FRET) readout. For that purpose MCL-1 (amino acids 173-329, N-terminal fused to Maltose Binding Protein (MBP) SEQ ID 1) and a synthetic Noxa BH3-derived peptide of sequence Biotin-PEG2-PEG2-PAELEVE-Nva-ATQLRRFGDKLNFRQKLL-amide (SEQ ID 2) served as protein receptor and tracer ligand respectively. The MBP-MCL-1 was purchased from Beryllium (Bedford, Mass., USA). The expression and purification of this protein construct has been described elsewhere (DOI:10.1371/journal.pone.0125010). The Noxa BH3-derived peptide can be obtained from e.g. Biosyntan (Berlin, Germany).
In the assay 11 different concentrations of each compound (0.1 nM, 0.33 nM, 1.1 nM, 3.8 nM, 13 nM, 44 nM, 0.15 μM, 0.51 μM, 1.7 μM, 5.9 μM and 20 μM) were typically measured as duplicates in the same microtiter plate. […]
The mixture was incubated in the dark for one hour at 22° C. and then overnight at 4° C. The formation of MCL-1/Noxa complexes was determined by measuring the resonance energy transfer of the anti-MBP-Eu-cryptate antibody to the streptavidin-XL665 present in the reaction. […]

SUDHL5 = system: SUDHL5
Protocol: Assay 6 Induction of Cytotoxicity Upon Treatment of Cells with Selected Compounds
In principle, compounds that induce apoptosis will concomitantly induce cell cytotoxicity. Therefore, cytotoxicity assays were run in parallel in SUDHL5 and SUDHL10 cells.
The different cell lines were plated in culture medium (RPMI 1640 [GIBCO #22400-089] supplemented with 10% Fetal Bovine Serum) at a density of 3,300 cells in 30 μl/well in a sterile, solid black, flat bottom, polystyrene, TC-treated 384-well microplate (Corning #3571) using Multidrop Combi Reagent Dispenser. As a control, medium without cells was also added to the plate. Cells were incubated in a humidified incubator at 37° C. overnight. On the next day, the cells were treated with compounds (stock solution, 10 mM in DMSO) using the HP D300 Digital Dispenser in a concentration range of 3.3×10e-5 M (33 μM) to 5×10e-9 M (5 nM) in a single-dot curve with at least 16 dilutions and a DMSO concentration of 0.33%. Rim wells were excluded. The cells were incubated for 5 hours in a humidified incubator at 37° C. […] Finally, luminescence was read at 0.1 ms, with a gain of 3000 using the PHERAstar FS microplate reader (BMG Labtech). […]

SMILES: CCc1c2c(nn1C)CNS(=O)(=O)CCCn1c(C(=O)O)c(CCCOc3cccc4cc(F)ccc34)c3ccc(Cl)c-2c31
- IC50 (MCL-1): 1.9e-09 M
- IC50 (SUDHL5): 1600 nM
- IC50 (SUDHL10): 2900 nM

Source: patent US11401278B2, “Macrocyclic indole derivatives” (The Broad Institute, Inc., priority 2017, dated 2022)
